The values below come from patent US20260146107A1 (ALLIGATOR BIOSCIENCE, published 2026).

Assay [1] deals with T1, human CEACAM1 expressed on CHO cells (human, UniProt P13688 35-526).
T1 construct: whole, on cells; also called CHO-CEACAM1; CEACAM1 on cells
T1 sequence (looked up): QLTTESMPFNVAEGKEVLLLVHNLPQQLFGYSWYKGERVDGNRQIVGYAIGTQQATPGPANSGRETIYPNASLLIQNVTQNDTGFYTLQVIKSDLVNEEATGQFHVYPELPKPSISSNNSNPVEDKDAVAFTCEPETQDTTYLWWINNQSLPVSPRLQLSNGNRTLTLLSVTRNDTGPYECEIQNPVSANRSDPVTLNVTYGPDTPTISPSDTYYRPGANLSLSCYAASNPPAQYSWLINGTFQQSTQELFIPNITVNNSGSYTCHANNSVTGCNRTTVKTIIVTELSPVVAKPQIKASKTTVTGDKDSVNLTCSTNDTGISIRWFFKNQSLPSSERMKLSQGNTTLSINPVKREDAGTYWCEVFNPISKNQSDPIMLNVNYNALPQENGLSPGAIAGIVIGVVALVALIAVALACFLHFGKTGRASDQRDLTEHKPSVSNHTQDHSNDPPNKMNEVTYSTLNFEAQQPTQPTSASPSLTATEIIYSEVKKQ
Put plainly: flow cytometry on CHO-CEACAM1 cells, fluorochrome-conjugated anti-human IgG, MFI. (In general: In flow cytometry, cells or beads pass a laser one at a time.)

Assay [2] addresses T2, human CEACAM5, recombinant (R&D Systems #4128-CM-050) (human, UniProt P06731 35-685).
T2 construct: Bought; coated in ELISA and used as monomeric analyte in Octet; also called hCEACAM-5; Human CEACAM5-His; not shown: His tag
T2 sequence (looked up): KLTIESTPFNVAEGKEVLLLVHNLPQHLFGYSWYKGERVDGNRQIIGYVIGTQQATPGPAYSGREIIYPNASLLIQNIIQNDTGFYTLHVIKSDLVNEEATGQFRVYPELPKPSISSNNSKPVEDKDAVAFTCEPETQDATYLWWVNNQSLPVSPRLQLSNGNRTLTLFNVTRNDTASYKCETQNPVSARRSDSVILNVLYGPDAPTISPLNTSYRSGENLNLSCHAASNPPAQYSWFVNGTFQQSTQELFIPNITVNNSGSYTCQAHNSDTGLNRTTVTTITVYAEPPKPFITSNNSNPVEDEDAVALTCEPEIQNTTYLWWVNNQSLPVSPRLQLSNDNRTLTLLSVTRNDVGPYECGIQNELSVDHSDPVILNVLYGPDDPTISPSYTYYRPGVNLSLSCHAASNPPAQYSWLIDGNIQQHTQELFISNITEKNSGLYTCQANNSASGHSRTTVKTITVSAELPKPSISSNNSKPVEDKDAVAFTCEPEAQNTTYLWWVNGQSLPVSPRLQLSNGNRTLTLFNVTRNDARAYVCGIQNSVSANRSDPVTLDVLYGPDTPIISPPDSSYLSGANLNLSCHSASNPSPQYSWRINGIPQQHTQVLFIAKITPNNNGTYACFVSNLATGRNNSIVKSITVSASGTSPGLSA
Put plainly: Octet BLI, captured bsAb, monomeric CEACAM5 in solution, 1:1 fit. In general terms: In BLI a coated tip is dipped into the sample, and binding shifts an interference pattern.

The target in assay [3] is T3, biotinylated human CEACAM5-His (Acro Biosystems #CE5-H82E0) (human, UniProt P06731 35-685, biotinylated (site not stated)).
T3 construct: also called CEACAM5-biotin; captured human CEACAM5-biotin; not shown: His tag
T3 sequence (looked up): T2 sequence (looked up)
Put plainly: Octet BLI, captured CEACAM5-biotin, bsAb in solution, 1:1 fit.

B1: Multi42 (bispecific antibody, human IgG1, kappa, L234A L235A)
chain 1: not shown
chain 2: EIVLTQSPGTLSLSPGERATLSCRASQSVSSSYLAWYQEKPGQAPRLLIYGASSRATGIPDRFSGSGSGTDFTLTISRLEPEDFAVYYCQQYWYPLTFGQGTKLEIKRTVAAPSVFIFPPSDEQLKSGTASVVCYLNNFYPREAKVQWKVDNALQSGNSQESVTEQDSKDSTYSLWSTLTLSKADYEKHKVYACEVTHQGLSSPVTKSFNRGEC
chain 3: EVQLLESGGGLVQPGGSLRLSCAASGFTFSTYGMHWVREAPGKGLEWLSYISGGSSYIFYADSVKGRFTISRDNSKNTLYLQMNSLRAEDTAVYYCARILRGGSGMDLWGQGTLVTVSSASTKGPSVFPLAPSSKSTSGGTAALGCLVKDYFPEPVTVSWNSGALTSGVHTFPAVLQSSGLYSLTSVVEVPSSSLGTQTYICNVNHKPSNTKVDKKVEPKSC
In general, Kd refers to the constant that tells how readily two partners part at equilibrium. Usually koff stands for a measure of how fast the partners let go of each other. The kon is a measure of how fast the partners come together. On to B1, for which the binding result in assay [1] is “no binding (tested: about 400 nM)”. For the same molecule, in assay [2], the Kd worked out at 2 nM, the koff is 0.00091 s⁻¹ and the kon came to 470000 M⁻¹ s⁻¹. In assay [3], binding was characterised by a dissociation constant (Kd) of 840 nM, the koff was 0.0015 s⁻¹ and the kon was 1800 M⁻¹ s⁻¹.
